# Bioassay records (PubChem BioAssay)
# HCMV NEC inh: cytomegalovirus nuclear egress complex inhibition; HTRF UL50-UL53 interaction, normalized percent inhibition; inhibition, % (concentration not given with the values); hit rate 0.15% among 190,000; AID 1918969; in the data active means inhibition above about 27%, passing the limit was not always enough
# Sa growth 42C: S. aureus growth inhibition; S. aureus RN4220 growth, OD600, 20 h, 42 °C; hits give low values; hit rate 0.53% among 170,000; relative growth, % (no concentration beside the values);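 active means relative growth at most 50% at the other temperature and 20+ points below 30 °C, or under 10% at both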
# GIV Gai3 FP: inhibitors of GIV GBA-motif binding to rat Galpha-i3; P08753; Galpha-i3/FITC-GIV peptide fluorescence polarization, 90 min; hits give low values; scaled: aluminum fluoride 0%, vehicle 100%; percent of control (FP), % (test concentration not listed); actives 0.42% (n = 210,000); AID 1224905;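 active = replicate mean at 85% of control or lower, very high polarization wells dropped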;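 also: wells of about 15 µL received 100 nL stock; the first replicate is given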
# Hits are given with their value; 0 = inactive; - = no result. Most compounds without a hit are left out; they make up all but 0.7% or so of the library.
SMILES,HCMV NEC inh,Sa growth 42C,GIV Gai3 FP
CN1C=C/C(=C\c2cc[n+](C)c3ccccc23)c2ccccc21,-,0.6,0
C[n+]1ccc(/C=C/c2ccccc2F)c2ccccc21,-,0,0
Cc1nc(N2CCC(C)CC2)c2c(C)c(C(=O)N3CCC(C)CC3)sc2n1,-,-,0
COc1ccc(CCN2COc3c(cc(Cl)c4cccnc34)C2)cc1OC,0,-,-
COCCN1COc2c(cc(Cl)c3cccnc23)C1,0,0.9,-
O=C1C(=O)N(c2ccccc2)C(c2ccc3c(c2)OCO3)/C1=C(\O)c1ccccc1 (stereo not drawn),-,-,0
Cc1ccccc1N1CC(O)(c2ccc(F)cc2)[N+]2=C1CCCC2 (stereo not drawn),-,-,0
CC1c2cccc(O)c2C(O)=C2C(=O)[C@]3(O)C(O)=C(C(N)=O)C(=O)[C@@H](N(C)C)[C@@H]3C[C@@H]21 (stereo partly drawn),0,-,-
C[C@H]1c2cccc(O)c2C(O)=C2C(=O)C3(O)C(O)=C(C(N)=O)C(=O)[C@@H](N(C)C)[C@@H]3[C@@H](O)[C@@H]21 (stereo partly drawn),0,-,-
C=C1c2cccc(O)c2C(O)=C2C(=O)[C@]3(O)C(O)=C(C(N)=O)C(=O)[C@@H](N(C)C)[C@@H]3[C@@H](O)[C@H]12,0,0.1,-
C=C1c2c(Cl)ccc(O)c2C(O)=C2C(=O)[C@]3(O)C(O)=C(C(N)=O)C(=O)[C@@H](N(C)C)[C@@H]3[C@@H](O)[C@H]12,0,-0.9,-
O=C(Nc1cc(Cl)ccc1Oc1ccc2ccccc2c1Cl)c1cc(Cl)cc(Br)c1O,-,-,0
Cc1ccc(-c2nc3cccnc3n2CCNC(=O)c2ccc3c(c2)OCO3)cc1,0,-,0
CCn1c(=O)cc(Nc2ccc(C)c(C)c2)[nH]c1=O,0,2.4,0
Cc1cc(=O)[nH]c(Nc2ccc(C)c(C)c2)n1,0,-,0
CC(NC(=O)Nc1cccc(C(F)(F)F)c1)c1nc2ccccc2[nH]1 (stereo not drawn),0,0.5,-
C[C@H](NC(=O)c1cccc(C(F)(F)F)c1)c1nc2ccccc2[nH]1,0,0,-
N=C1/C(=C\c2cn(CCOc3ccccc3Cl)c3ccccc23)C(=O)N=C2SC=NN12,0,0,11
Cc1ccc(C)c(OCCn2cc(/C=C3\C(=N)N4N=C(S(C)(=O)=O)SC4=NC3=O)c3ccccc32)c1,0,0,0
CCOC(=O)C1=C(C)N=c2s/c(=C\c3ccc(O)c(OC)c3)c(=O)n2C1c1ccc(OC)c(OC)c1 (stereo not drawn),0,-,0
CCOc1cc(N2CCOCC2)c(OCC)cc1NC(=O)COC(=O)CN=C1NS(=O)(=O)c2ccccc21,0,0,-
CCc1onc(C)c1C1CCCN1Cc1ccc(C)cc1C (stereo not drawn),-,-,0
CCN1CCN(C(=O)c2nc(-c3nn(-c4ccc(F)cc4)c(=O)n(CC)c3=O)no2)CC1,0,-,0
CN=Cc1cc(-c2ccccc2)n(C)c1S,-,0,0
Cn1c(-c2ccccc2)cc(C=Nc2ccccc2)c1O,-,4.0,0
SMILES,HCMV NEC inh,Sa growth 42C,GIV Gai3 FP
COc1ccccc1N(C)S(=O)(=O)c1ccc(Cl)c(C(=O)O)c1,0,0,-
FC(F)(F)c1cccc(N=Cc2ccccc2)c1,0,0,-
FC(F)(F)c1cccc(N=C=S)c1,0,-1.3,-
Oc1ccc2c(c1)c(-c1ccccc1)nn2-c1ccccc1,0,20,0
c1ccc(-c2nn(-c3ccccc3)c3c2cnc2ccccc23)cc1,-,0,0
CSc1ncc(C(=O)NCc2ccc(S(N)(=O)=O)cc2)n1-c1ccccc1,0,0,-
CNC(=O)c1sc(=S)n2c1[nH]c(=O)c1cc(Br)ccc12,0,-,0
O=C(O)c1cn(-c2ccc(F)cc2)c2cc(N3CCN(CC(F)(F)F)CC3)c(F)cc2c1=O,-,-,0
O=C(O)c1cn(-c2ccc(F)cc2)c2cc(N3CCNCC3)c(F)cc2c1=O,0,-0.9,0
O=C(O)c1cn(C2CC2)c2cc(N3CCN(C(=S)S)CC3)c(F)cc2c1=O,0,-0.9,-
CNC1CCCN(c2c(F)cc3c(=O)c(C(=O)O)cn(C4CC4)c3c2OC)C1 (stereo not drawn),0,-,-
CCOC(=O)c1cc2ccsc2n1CC(=O)Nc1ccc(Cl)cc1F,0,-,0
CC(NC(=O)CSc1nccc(=O)[nH]1)C1CC2CCC1C2 (stereo not drawn),0,0,-
COc1ccc(Nc2cc(N3CCCCC3)c3nonc3c2[N+](=O)[O-])cc1,0,-,0
C#CCN1C(=O)S/C(=C/C=C/c2ccc(N(C)C)cc2)C1=O,0,0,-61
CN1C(=O)/C(=C\C=C\c2ccc(N(C)C)cc2)SC1=S,-,0,0
Cn1c(=O)[nH]c(=O)c2c(C(=O)NCCC3=CCCCC3)cc(=O)[nH]c21,0,-,0
COc1ccc(S(=O)(=O)N2CCOCC2)cc1-c1nnc2c3ccccc3c(C)nn12,54,0,0
COc1ccc(S(N)(=O)=O)cc1-c1nnc2c3ccccc3c(C)nn12,-,0,0
NS(=O)(=O)c1ccc(CNC(=O)c2scc3c2OCCO3)cc1,0,0,0
CCCc1cc(C2CCCN2Cc2cc(Br)ccc2F)no1 (stereo not drawn),-,-,0
Oc1ccc(C=Nc2ccc(Nc3ccccc3)cc2)c(O)c1,0,0,6.8
Oc1ccc(C=Nc2cccc(C(F)(F)F)c2)c(O)c1,0,0,0
O=C(c1nc(C2CCCC2)nc2c1OCCO2)N1CCOCC1,-,-,0
COC(=O)C1=C(CSc2nccn2C)NC(=O)NC1c1ccc(OC)cc1 (stereo not drawn),0,0,0
SMILES,HCMV NEC inh,Sa growth 42C,GIV Gai3 FP
Cc1cccc(Nc2nc3nonc3nc2Cl)c1,0,-0.4,-
Cc1cccc(Nc2nc3nonc3nc2N2CCC(C)CC2)c1,0,-,0
COc1ccc(NC(=S)NC(=O)COc2ccccc2)cc1,0,0,-
CC(C)c1n[nH]c2c1CCCC2,0,0,0
Ic1ccc(OCCCCn2ccnc2)cc1,0,1.3,0
CC(C)(C)c1ccc(OCCCn2ccnc2)cc1,0,2.3,0
CCOc1ccc(NC(=S)NCCCn2ccnc2)cc1,-,0,0
Clc1cccc(Cl)c1OCCCn1ccnc1,0,0,-
N#Cc1c(-c2ccccc2)cc(-c2cc(Br)ccc2O)[nH]c1=O,0,-,-
CC(Nc1nc2ccccc2s1)C(=O)NN (stereo not drawn),0,0,-
COC(=O)c1ccc(CN2C(=O)NC3(CCCC3)C2=O)cc1,0,0,-
C=CCn1c(=O)/c(=C2/Sc3ccccc3N2CC)s/c1=C1\SC(=S)N(C)C1=O,-,-,0
C=CCn1c(=O)/c(=C2/Sc3ccc(OC)cc3N2CC)s/c1=C1\SC(=S)N(CCCC)C1=O,-,-,42
O=C(c1cc(C2CC2)[nH]n1)N1CCN(c2ccccc2)CC1,0,-,0
CCOC(=O)N1CCN=C1SCc1cc(C)ccc1C,0,0,0
C=CCNc1ccc2c3c1cccc3c(=O)n1c3ccccc3nc21,-,-,-52
O=c1c2cccc3cccc(c32)c2nc3ccccc3n12,-,-,0
CC1CCCC(NC(=O)CSc2ccccc2Cl)C1C (stereo not drawn),0,0,-
CCN(CC)c1ncc(C(=O)O)cc1NS(=O)(=O)c1ccc(Br)cc1,0,-,85
CCCCN(CC)c1ncc(C(=O)O)cc1NS(=O)(=O)c1ccc(Br)cc1,0,-,0
COc1ccc(C(=O)Nc2nc3n(n2)C(c2ccc(Cl)cc2)C=C(c2ccccc2)N3)cc1OC (stereo not drawn),0,0,40
